Values of other authors, collected in PMC7012964, “Biopharmaceutical Understanding of Excipient Variability on Drug Apparent Solubility Based on Drug Physicochemical Properties. Case Study: Superdisintegrants” (The AAPS Journal, 2020).

Conditions: ref (20), (22), (23), (25), DrugBank, (28), (31), (33); cited from earlier work

In the case of `CN(C)C(=N)N=C(N)N` [MTF, Metformin], the “Ionization (type)” value is listed as “Weak base”.
